Tested on: E. coli strain W3110
Assay: Synergy assays: Biolog chemical sensitivity panels with Group IB metal, coefficient of drug interaction (CDI) from relative growth

Substance	CDI (coefficient of drug interaction) (Gold 5 μM, biocide concentration 4 of 4, E. coli)	CDI (coefficient of drug interaction), silver + biocide (Silver 5.0 μM, 2nd of four biocide concentrations, E. coli)	CDI (coefficient of drug interaction) (Gold section of Table 5, second of three gold concentrations (μM, value not given), biocide concentration 1 of 4)
acriflavine	1.02	1.02	
spiramycin			1.02
